Reference: ChEMBL document CHEMBL3877309, “Determination of binding modes and binding constants for the complexes of 6H-pyrido[4,3-b]carbazole derivatives with DNA” (Bioorg Med Chem, 2017)

Key:
[1] = Ratio of Ka for synthetic biotin-labeled 30-mer GC-rich duplex DNA in pH 7 to Ka for synthetic biotin-labeled 30-mer GC-rich duplex DNA in pH 7.8
[2] = Binding affinity to synthetic biotin-labeled 30-mer GC-rich duplex DNA in pH 7 EDTA buffer solution in presence of 0.05 M NaCl at 25 degC by QCM sensogram analysis
[3] = Binding affinity to synthetic biotin-labeled 30-mer GC-rich duplex DNA in pH 7.8 EDTA buffer solution in presence of 0.05 M NaCl at 25 degC by QCM sensogram analysis

Ratio [1]	Ka [2]	Ka [3]	SMILES
1.1	2.34 ×10⁵ /M	2.11 ×10⁵ /M	CNC(=O)NCCCCCNC(=O)c1c2cc[n+](C)cc2c(C)c2c1[nH]c1ccccc12
0.5	1.05 ×10⁵ /M	2.2 ×10⁵ /M	CNC(=O)NCCNC(=O)c1c2ccncc2c(C)c2c1[nH]c1ccccc12
7.8	25.1 ×10⁵ /M	3.2 ×10⁵ /M	COc1ccc2[nH]c3c(C(=O)NCCN)c4ccncc4c(C)c3c2c1
2.6	45 ×10⁵ /M	16.7 ×10⁵ /M	Cc1c2c[n+](C)ccc2c(C(=O)NCCCCCN)c2[nH]c3ccccc3c12
0.6	2.17 ×10⁵ /M	3.75 ×10⁵ /M	CNC(=O)NCCNC(=O)c1c2ccncc2c(C)c2c1[nH]c1ccc(OC)cc12
1.6	3.74 ×10⁵ /M	2.55 ×10⁵ /M	CNC(=O)NCCNC(=O)c1c2cc[n+](C)cc2c(C)c2c1[nH]c1ccc(OC)cc12
1.8	33.2 ×10⁵ /M	18.2 ×10⁵ /M	Cc1c2c[n+](C)ccc2c(C(=O)NCCN)c2[nH]c3ccccc3c12
1.3	2.9 ×10⁵ /M	2.31 ×10⁵ /M	CNC(=O)NCCNC(=O)c1c2cc[n+](C)cc2c(C)c2c1[nH]c1ccccc12
4.6	22.3 ×10⁵ /M	4.83 ×10⁵ /M	Cc1c2cnccc2c(C(=O)NCCN)c2[nH]c3ccccc3c12
1.4	147 ×10⁵ /M	108 ×10⁵ /M	COc1ccc2[nH]c3c(C(=O)NCCN)c4cc[n+](C)cc4c(C)c3c2c1
